# Experimental data: PubChem BioAssay AID1259310 (The Scripps Research Institute Molecular Screening Center, 2017)
# By UniProt entry, the sequences of proteins in these tests, tags left out. Where a name states a change or a piece, a line headed by the entry shows the natural chain unless it says otherwise.
# UniProt Q969H0, whole entry, stated change not applied: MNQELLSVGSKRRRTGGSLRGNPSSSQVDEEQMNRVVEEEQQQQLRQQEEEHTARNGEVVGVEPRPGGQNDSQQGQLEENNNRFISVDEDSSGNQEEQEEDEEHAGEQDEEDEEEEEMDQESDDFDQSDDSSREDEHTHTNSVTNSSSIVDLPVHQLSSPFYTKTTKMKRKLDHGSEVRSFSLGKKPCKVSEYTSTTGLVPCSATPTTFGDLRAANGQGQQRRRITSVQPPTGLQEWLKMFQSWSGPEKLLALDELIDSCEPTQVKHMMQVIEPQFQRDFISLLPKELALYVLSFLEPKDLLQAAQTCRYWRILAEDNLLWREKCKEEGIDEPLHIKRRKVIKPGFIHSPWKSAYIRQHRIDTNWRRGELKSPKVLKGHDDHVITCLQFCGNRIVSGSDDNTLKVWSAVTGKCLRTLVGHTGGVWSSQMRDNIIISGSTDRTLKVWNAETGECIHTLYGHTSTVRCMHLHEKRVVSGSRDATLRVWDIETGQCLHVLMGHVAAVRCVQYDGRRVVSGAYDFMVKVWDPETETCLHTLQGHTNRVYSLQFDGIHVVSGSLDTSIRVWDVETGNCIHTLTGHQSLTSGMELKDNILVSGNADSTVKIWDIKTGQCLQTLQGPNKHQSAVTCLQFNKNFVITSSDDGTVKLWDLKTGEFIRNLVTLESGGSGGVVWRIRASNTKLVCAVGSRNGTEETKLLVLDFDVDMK
# Only a part is listed here, and it is no random draw. Active and inactive are the calls of the source. Rule as the data show it: active = normalized activity above about 1.9%; inactive = the rest.
# Molecular target: F-box/WD repeat-containing protein 7 (Homo sapiens) (UniProt Q969H0)
# Assay: FBW7 E3 ligase activators, primary screen, biochemical, AlphaScreen, human (AID 1259310);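 also: purified mutant Fbw7 with reduced substrate affinity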
# Details: AlphaScreen FBW7–phospho-cyclin E peptide binding, activator screen; at 26.1 µM; stronger effect = higher value
row,Structure (SMILES),normalized activity (activation)
1,CN1CCC(Nc2ccc(F)c(Cl)c2)CC1,inactive: 0.64%
2,CC(C)(C)OC(=O)N1CCC(Nc2ccc(F)cc2F)CC1,inactive: 0.12%
3,Fc1ccc(NC2CCN(Cc3ccccc3)CC2)cc1F,inactive: 0.04%
4,O=C(O)C1(Nc2ccccc2)CCN(Cc2ccccc2)CC1,inactive: -0.02%
5,CCCOc1ccc(C(=O)NCC2(N(C)C)CCCCC2)cc1,inactive: -0.17%
6,COc1cc(OC)cc(C(=O)NCC2(N3CCOCC3)CCCCC2)c1,inactive: 0.12%
7,CCC(CO)(C(=O)OC1CN2CCC1CC2)c1ccccc1 (centres undefined),inactive: -0.14%
8,CN1CCC(Nc2ccc(Cl)cc2)CC1,inactive: 0.75%
9,COc1ccc(NC2CCN(Cc3ccncc3)CC2)cc1,inactive: 0.39%
10,CN(C)C1(CNC(=O)c2cc(=O)[nH]c3ccccc23)CCCCC1,inactive: 0.01%
11,CCCN1CCC(Nc2ccc(Cl)cc2)CC1,inactive: 0.38%
12,CC1CN(Cc2ccccc2)CCC1=O (centres undefined),inactive: 0.28%
13,[C-]#N.[K+].c1ccc2c(c1)OCCOCCOc1ccccc1OCCOCCO2,inactive: -0.18%
14,CN(C)C1(CNC(=O)c2cc3c(s2)CCC3)CCCCC1,inactive: -0.12%
15,CN1CCC(Nc2ccccc2Cl)CC1,inactive: 0.03%
16,Fc1cccc(NC2CCN(CCc3ccccc3)CC2)c1,inactive: -0.16%
17,Clc1ccc(NC2CCN(Cc3ccccc3)CC2)cc1,inactive: 0.28%
18,CCOP(=O)(OCC)SCC(=O)N(CC)CC,inactive: 0.14%
19,CCN1CCC(Nc2ccc(F)cc2)CC1,inactive: 0.01%
20,CC1CN(C)C(C)CC1Nc1ccccc1 (centres undefined),inactive: -0.07%
21,O=C(NCC1(N2CCCCC2)CCCCC1)c1ccc([N+](=O)[O-])s1,inactive: 0.02%
22,CN1CCC(Nc2ccccc2F)CC1,inactive: -0.11%
23,CC(C)(C)OC(=O)N1CCC(Nc2ccc(Cl)cc2Cl)CC1,inactive: -0.06%

row,Structure (SMILES),normalized activity (activation)
1,N#Cc1ccc(C(=O)NCC2(N3CCCCC3)CCCCC2)cc1,inactive: 0.26%
2,CC(=O)N1CCN(C/C=C/c2ccccc2[N+](=O)[O-])CC1,inactive: -0.02%
3,COc1ccc(CCN2CCC(Nc3ccc(OC)cc3)CC2)cc1,inactive: 0.51%
4,COc1cccc(OC)c1CN1CCC(=O)CC1,inactive: 0.17%
5,CCCN1CCC(Nc2cc(OC)cc(OC)c2)CC1,inactive: 0.25%
6,c1ccc(CN2CCC(Nc3ccccc3)CC2)cc1,inactive: 0.21%
7,COc1cc(C(=O)NCC2(N3CCOCC3)CCCCC2)cc(OC)c1C,inactive: 0.3%
8,NC(=O)C1(Nc2ccccc2)CCN(Cc2ccccc2)CC1,inactive: -0.04%
9,COc1ccc(C(=O)NCC2(N3CCOCC3)CCCCC2)cc1OC,inactive: 0%
10,CCOC(=O)N1CCC(Nc2ccc(C)cc2)CC1,inactive: 0.05%
11,O=C(NCC1(N2CCOCC2)CCCCC1)c1ccc2c(c1)OCO2,inactive: 0.07%
12,O=C1CCN(CCc2ccccc2)CC1,inactive: 0.46%
13,CN1CCC(Nc2ccc(F)cc2)CC1,inactive: 0.07%
14,CCOC(=O)N1CCC(Nc2ccc(Cl)cc2)CC1,inactive: 0.09%
15,Cc1ccc(C(=O)O)cc1N(CCCl)CCCl,inactive: 0.22%
16,FC(F)(F)Oc1ccc(NC2CCNCC2)cc1,inactive: -0.03%
17,COc1ccc(CN(CCCl)CCCl)cc1Cl,inactive: 0%
18,COc1cc(OC)c(C(=O)NCC2(N(C)C)CCCCC2)cc1OC,inactive: 0%
19,COc1cccc(OC)c1CN1CCC(Nc2ccccc2)CC1,inactive: -0.23%
20,CN1CCC(Nc2cccc(F)c2)CC1,inactive: -0.17%
21,O=C(NCC1(N2CCCCC2)CCCCC1)c1cncc(Br)c1,inactive: 0.51%
22,Cc1cc(C(=O)NCC2(N3CCOCC3)CCCCC2)c2ccccc2n1,inactive: -0.01%
23,CCN1CCC(Nc2ccccc2F)CC1,inactive: -0.04%

row,Structure (SMILES),normalized activity (activation)
1,CCCOc1ccc(C(=O)NCC2(N(C)C)CCCCC2)cc1OC,inactive: -0.07%
2,COc1ccc(CCN2CCC(N(Cc3ccco3)C(C)=O)CC2)cc1,inactive: 0.01%
3,CCN1CCC(Nc2ccc(Cl)cc2)CC1,inactive: 0.02%
4,O=C(NCC1(N2CCCCC2)CCCCC1)c1cccc([N+](=O)[O-])c1,inactive: -0.06%
5,COc1ccc(NC2CCN(CCc3cccs3)CC2)cc1,inactive: -0.26%
6,O=C(NCC1(N2CCOCC2)CCCCC1)c1cc(=O)[nH]c2ccccc12,inactive: -0.09%
7,COc1ccccc1/C=C/CN1CCN(C(C)=O)CC1,inactive: -0.12%
8,CN1CCN(CCOC(=O)C(O)(c2ccccc2)c2ccccc2)CC1,inactive: -0.11%
9,O=C1CCN(Cc2ccccc2)CC1,inactive: 0.04%
10,CCCN1CCC(Nc2ccc(F)cc2)CC1,inactive: 0.11%
11,CC(=O)N1CCc2ccc(N(C(=O)C(C)(C)C)C3CCN(Cc4ccccc4)CC3)cc21,inactive: -0.05%
12,CN(C)P(=O)(OC(C)(C)C(Cl)(Cl)Cl)SCCCCl (centres undefined),inactive: 0.37%
13,CCOC(=O)N1CCC(Nc2ccc(F)cc2)CC1,inactive: -0.01%
14,COc1ccc(NC2CCN(CCc3ccccn3)CC2)cc1,inactive: 0.7%
15,CCOC(=O)N1CCC(Nc2cccc(C)c2)CC1,inactive: -0.09%
16,COc1cccc(CN(CCCl)CCCl)c1,inactive: 0.03%
17,COc1ccc(C(=O)NCC2(N3CCCCC3)CCCCC2)c(OC)c1OC,inactive: -0.01%
18,CCCN1CCC(Nc2ccc(OC)c(OC)c2)CC1,inactive: -0.05%
19,COc1ccc(C(=O)NCC2(N3CCCCC3)CCCCC2)cc1,inactive: -0.2%
20,CN(CCOC(=O)C(O)(c1ccccc1)c1ccccc1)C(C)(C)C,inactive: 1.15%
21,N#CC1(Nc2ccccc2)CCN(Cc2ccccc2)CC1,inactive: 0.27%
22,CC1CN(CCc2ccccc2)CCC1=O (centres undefined),inactive: -0.02%
23,CCOC(=O)N1CCC(Nc2ccc(OC)cc2)CC1,inactive: -0.02%
